# scFv variants of Ab-14 (light chain) against a SARS-CoV-2 spike peptide

Data: MIT Lincoln Laboratory AlphaSeq set, Li et al. 2023, doi:10.1038/s41467-023-39022-2, as distributed in FLAb.

The target is the same throughout: PDVDLGDISGINAS, from the HR2 region of SARS-CoV-2 spike.

Parent: Ab-14, a human scFv built as VH, a (GGGGS)3 linker, VL. Only the CDRs of the light chain vary.
VH: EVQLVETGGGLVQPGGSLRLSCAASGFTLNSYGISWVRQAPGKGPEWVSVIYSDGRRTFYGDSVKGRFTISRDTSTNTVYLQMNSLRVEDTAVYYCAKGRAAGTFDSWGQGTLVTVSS
VL: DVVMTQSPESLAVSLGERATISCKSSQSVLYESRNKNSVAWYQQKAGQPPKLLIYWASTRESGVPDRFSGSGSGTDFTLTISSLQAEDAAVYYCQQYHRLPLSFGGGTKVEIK

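The variants were designed computationally from a first round of random CDR variants and then made and measured. Their group label is 14L_GP_HC (GP: Gaussian process model; HC: hill climbing; a sequence that several methods proposed may carry one label only). AlphaSeq pools MATa yeast showing the antibodies with MATalpha yeast showing the peptide. Pairs that bind mate more often; barcode pairs of the diploids are counted by sequencing. Scores were corrected for input abundance and mapped to Kd with protein pairs of known affinity run in the same pool. Mating was done six times.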

Changes read parent residue, position, new residue, counted from the first residue of the VL shown.
Numbers give log10(Kd / nM), so 0 is 1 nM and 3 is 1 µM. Smaller is tighter.
Empty control strains, which show no peptide, gave a signal in 4% of pairings with all light chain designs; the median was 2.64 and 95% of these signals were weaker than 1.59. No background was subtracted. The control count says in how many pairings with the empty strains this scFv gave a signal, with their mean in brackets.

| # | changes | replicates, log10 nM | empty controls |
|---|---|---|---|
| 1 | S25V+S28W+N35T+W56N | -0.09 / -0.18 / 0.05 / -0.18 / -0.04 / 0.05 | 0 of 18 |
| 2 | L30M+Y31F+W56D | 0.14 / 0.10 / -0.16 / 0.01 / 0.36 / 0.19 | 0 of 18 |
| 3 | Q27I+V29W+W56E+S62Q | -0.08 / 0.11 / -0.02 / -0.19 / -0.16 / 0.17 | 0 of 18 |
| 4 | K24H+S25L+Q27P+S38N+W56N | -0.46 / -0.53 / -0.46 / -0.84 / -0.69 / -0.39 | 0 of 18 |
| 5 | Q27N+R34E+W56E+T59Q | 3.54 / 0.94 / 1.23 / 1.21 / 1.96 / 1.05 | 0 of 18 |
| 6 | S25V+S26R+V29T+R99Q | 0.39 / 0.79 / 0.57 / 0.29 / 0.32 / 0.44 | 0 of 18 |
| 7 | S25L+S26D+S28G+V29A+W56G | 0.03 / -0.17 / -0.25 / -0.26 / -0.34 / -0.12 | 1 of 18 (2.99) |
| 8 | K24H+Q27P+L30E+Y31M+W56N | -0.05 / -0.16 / -0.52 / -0.46 / -0.23 / -0.16 | 0 of 18 |
| 9 | Q27Y+V29Y+W56A | 0.50 / 0.36 / 0.04 / 0.09 / 0.28 / 0.40 | 2 of 18 (2.84) |
| 10 | S25L+S26Q+V29Q+L30E+W56Q | -0.10 / -0.08 / -0.13 / -0.23 / -0.10 / -0.19 | 0 of 18 |
| 11 | K24S+S25L+S26M+W56H+T59K+S62D | 0.30 / 0.36 / 0.14 / -0.05 / 0.18 / 0.37 | 1 of 18 (3.47) |
| 12 | S25V+Q27F+V29Y+Y31M+W56E | 0.00 / -0.41 / -0.52 / -0.47 / -0.48 / 0.13 | 0 of 18 |
| 13 | S25L+S26P+V29T+W56L | 0.72 / 0.64 / 0.44 / 0.52 / 0.40 / 0.61 | 0 of 18 |
| 14 | Q27S+V29Y+W56A | -0.02 / -0.14 / -0.12 / 0.26 / 0.50 / 0.52 | 0 of 18 |

Excerpt, the first 2 entries:

changes	replicates, log10 nM	empty controls
S25V+S28W+N35T+W56N	-0.09 / -0.18 / 0.05 / -0.18 / -0.04 / 0.05	0 of 18
L30M+Y31F+W56D	0.14 / 0.10 / -0.16 / 0.01 / 0.36 / 0.19	0 of 18

The authors averaged sequences with at least three values out of six and counted those with two or fewer as poor binders.
The range of this assay differs from that of the first round, and the authors advise against merging the two.